# Reference: patent US9428568B2, “Compositions and methods for modulating cell-cell fusion via intermediate-conductance calcium-activated potassium channels” (BOEHRINGER INGELHEIM INTERNATIONAL GMBH, priority 2008, dated 2016)
# “Also recorded” adds a separate entry of the source.
# Key:
# [1] = tested on: bone marrow-derived macrophages from WT mice; experiment: Osteoclastogenesis / cell fusion of bone marrow-derived macrophages of WT mice under M-CSF+RANKL (TRAP+ osteoclast-like cells); format: cell-based, mouse; details: bone marrow-derived macrophages of WT (SK4+/+) mice; FIGS. 7A-B; five replicates
# Text: Bone marrow- and spleen-derived mouse osteoclasts. These cells were generated from four- to twelve-week-old sk4^+/+ and sk4^−/− mice as previously described (Cui et al. (2007) Proc. Natl. Acad. Sci. USA 104:14436-14441; Epub 2007 Aug. 28). Bone marrow and spleen cells were isolated, mechanically dissociated and cultured at a density of 1.33×10^6 cells per cm^2 in MEM containing 10% heat-inactivated fetal bovine serum (HyClone, Logan, Utah), 100 units/ml penicillin-streptomycin (Gibco Invitrogen, Carlsbad, Calif.), 1% MEM vitamins, 1% glutamine, and 30 ng/ml M-CSF (PeproTech, Inc. Rocky Hill, N.J.). RANKL (PeproTech, Inc.) was added at a concentration of 40 ng/ml. Media was changed every three days. To assess the formation of an actin ring, a landmark of osteoclast activity, cells were cultured in the presence of M-CSF (20 ng/ml) and RANKL (40 ng/ml) on glass slides for 8 days, fixed and reacted with phalloidin-Alexa 568 and Topro-3. To further assess resorptive activity, cells were cultured on Osteologic slides that are coated with artificial bone made of calcium-phosphate crystals. After 8 days, cells were lysed and the substrates stained with silver nitrate according to the supplier's instructions. The resorbed areas on slides were recorded by histomorphometry.
# SK4 channels = SK4 channels (Homo sapiens, UniProt O15554); details: general statement in the definition of SK4 channels; cited from earlier work
# human PBMCs = experiment: Human osteoclastogenesis / cell fusion of PBMCs under M-CSF+RANKL stimulation (TRAP+ osteoclast-like cells); format: cell-based; details: FIGS. 10A-B, four replicates
# Method: Human osteoclasts. These cells were generated using normal peripheral blood blood (Allcells, Emeryville, Calif.). Peripheral blood monocytes were isolated using Ficoll-Paque and cultured at a concentration of 3×10^6 cells/ml in MEME supplemented with 10% FCS, recombinant human M-CSF (25 ng/ml) and recombinant human RANKL (40 ng/ml). The medium was changed once a week.
smiles,measurement,setting,value
"Clc1ccccc1C(c1ccccc1)(c1ccccc1)n1cccn1 [TRAM-34, 1-[(2-chlorophenyl)diphenylmethyl]-1H-pyrazole]","osteoclastogenesis (surface area of TRAP+ osteoclast-like cells, POC relative to no compound control)",[1],attenuated osteoclastogenesis in a dose dependent manner; also recorded: prevent osteoclastogenesis in a dose-dependent manner
same,block of SK4 channels,SK4 channels,blocked
same,"human osteoclastogenesis in vitro (surface area of TRAP+ osteoclast-like cells, POC relative to no compound control)",human PBMCs,inhibited human osteoclastogenesis in vitro in a dose-dependent manner; also recorded: prevent osteoclastogenesis in a dose-dependent manner
